According to published antibiotic growth screens (doi:10.1038/s41589-023-01349-8):
Some of the results follow.

Test system: A. baumannii ATCC 17978
Test: relative growth (fraction of control); higher = less inhibition
Conditions: 50 µM

Compound | relative growth
CCCNC(=O)N1C[C@@H](O)COC[C@@H]2O[C@H](CC(=O)N3CCN(C)CC3)CC[C@H]21 | 1.1
CC1(O)CCOC(=O)C1 (stereo not drawn) | 1.18
CC1CCC(NC(=O)N(CCCl)N=O)CC1 (stereo not drawn) | 1.04
CC(=O)OC1CC[C@@]2(C)C(CC[C@]3(C)C2CC[C@]24OC(=O)[C@@]5(CCC(C)C(C)C52)CC[C@]43C)C1(C)C (stereo partly drawn) | 0.917
O=C(CN1CCOCC1)NCC[C@@H]1CC[C@@H](NC(=O)c2ccccc2F)[C@@H](CO)O1 | 1.01
CCNC(=O)C[C@@H]1CC[C@H](NC(=O)C2CCOCC2)[C@@H](CO)O1 | 0.827
O=C(C[C@@H]1C=C[C@@H](NC(=O)c2ccc3c(c2)OCO3)[C@H](CO)O1)NCc1ccc(Oc2ccccc2)cc1 | 1.07
CC(C)C(=O)NCc1nnnn1-c1ccccc1 | 0.939
CCCNC(=O)COc1cccc([C@@H](CCc2ccc(OC)c(OC)c2)OC(=O)[C@@H]2CCCCN2C(=O)C(=O)C(C)(C)CC)c1 | 1.01
CCC(c1ccc(O)cc1)C(CC)c1ccc(O)cc1 (stereo not drawn) | 0.839
O=C(CN1C(=O)CSC1=O)N1CCCC1 | 0.963
C[C@@H]1CN([C@H](C)CO)S(=O)(=O)c2ccc(-c3cccnc3)cc2O[C@H]1CN(C)C(=O)c1cccc(F)c1 | 1.22
COc1cccc(S(=O)(=O)Nc2ccc3c(c2)[C@@H]2C[C@@H](CC(=O)NCc4cccc(F)c4)O[C@@H](CO)[C@@H]2O3)c1 | 1.07
C[C@H]1CN([C@@H](C)CO)S(=O)(=O)c2ccc(C#CC3CC3)cc2O[C@@H]1CN(C)C(=O)c1cccc(F)c1 | 0.946
O=C(NCc1ccccc1)[C@@H]1c2ccccc2C(=O)N(CC23CC4CC(CC(C4)C2)C3)[C@H]1c1ccc(CO)cc1 | 1.15
CC[C@@]1(O)C(=O)OCc2c1cc1n(c2=O)Cc2cc3cc(O)ccc3nc2-1 | 1.08
CNC(=O)C[C@@H]1CC[C@@H]2[C@H](COC[C@@H](O)CN2C(=O)Nc2ccc3c(c2)OCO3)O1 | 0.952
C[C@@H](NC(=O)C[C@@H]1CC[C@@H](NC(=O)CN2CCOCC2)[C@H](CO)O1)c1ccccc1 | 1.02
O=C(O)/C=C/c1ccc(O[C@@H]2O[C@H](CO)[C@@H](O)[C@H](O)[C@H]2O)cc1 | 1.11
C[C@@H]1CCCCO[C@@H](CN(C)Cc2ccc3c(c2)OCO3)[C@H](C)CN([C@H](C)CO)C(=O)c2cc(NS(=O)(=O)c3ccc(Cl)cc3)ccc2O1 | 1.22
C=CCn1c(=O)c2c(OC)ccnc2n(C)c1=O | 0.962
CC(C)[C@@H]1CC[C@@H](C)C[C@H]1O | 0.971
COc1ccc(S(=O)(=O)N(C)C[C@@H]2Oc3c(NC(=O)Nc4cccc5ccccc45)cccc3C(=O)N([C@H](C)CO)C[C@@H]2C)cc1 | 1.02
